We go through one molecule from patent US20260209222A1, “CBL-B MODULATORS AND USES THEREOF” (Nimbus Clio, Inc., priority 2022, published 2026).

Sequences of proteins named here, by UniProt entry; tags and fusion partners are left off. Residues count along the entry.
UniProt Q13191, 36-427 limits assumed: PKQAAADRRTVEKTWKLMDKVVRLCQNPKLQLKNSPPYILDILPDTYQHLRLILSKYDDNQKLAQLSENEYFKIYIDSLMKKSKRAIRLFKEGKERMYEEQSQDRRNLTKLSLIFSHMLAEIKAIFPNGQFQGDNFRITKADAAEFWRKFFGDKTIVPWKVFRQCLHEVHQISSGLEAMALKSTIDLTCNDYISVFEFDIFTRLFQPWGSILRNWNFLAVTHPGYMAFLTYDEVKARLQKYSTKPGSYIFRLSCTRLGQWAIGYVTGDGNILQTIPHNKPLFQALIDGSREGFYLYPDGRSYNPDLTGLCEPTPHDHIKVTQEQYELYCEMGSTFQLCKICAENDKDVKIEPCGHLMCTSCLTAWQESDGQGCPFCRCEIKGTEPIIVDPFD

In experiment [1] the target is Recombinant human Cbl-b (aa 36-427) (Homo sapiens, UniProt Q13191). Description: Cbl-b Biochemical Assay (TR-FRET). Particulars: read-out: TR-FRET Cbl-b IC50; 6 nM Cbl-b, 1-2.5 nM Src-Zap70, 0.5 mM ATP; HTRF signal at 520 nm. How it is done: Cbl-b Biochemical Assay (TR-FRET)
Recombinant human Cbl-b (aa 36-427) was expressed in E coli, purified and biotinylated in vitro. The protein was diluted to 12 nM in freshly prepared assay buffer consisting of 50 mM HEPES, pH 7.0, 100 mM NaCl, 5 mM MgCl2, 0.01% Triton-X 100, 0.01% BSA and 1 mM DTT. Recombinant human Src (aa 254-536)-GSSGSS-Zap-70 (aa 281-297) fusion protein was expressed in E coli and purified. Protein was diluted in assay buffer to 2-5 nM and supplemented with ATP to 1 mM. Fluorescein-BODIPY labeled UBED2D(C85K)-Ub was prepared by conjugating ubiquitin (Ub) labeled at its N-terminus with Fluorescein-BODIPY maleimide (ThermoFisher Catalog no B10250) to E coli expressed and purified UBED2D(C85K) [see Dou et al Nature Structural and Molecular Biology 8: 982-987, 2013]. Recombinant human UBE2D2(C85K) was expressed in E coli, purified and ubiquitinated and Bodipy labelled in vitro. Protein was diluted to 200 nM in assay buffer without MgCl2 (or Cisbio PPI buffer). Streptavidin-Terbium was added to 2 nM and EDTA to 10 mM, to provide a binding assay mix. […] The enzyme reaction was terminated and the binding reaction was initiated by adding 10p of binding assay mix to all wells and incubating the plate at RT for 60 min prior to assay read. […] The HTRF assay signal was measured at 520 nm on an Envision plate reader, with reference signal at 485 or 620 nm. […]
Background: TR-FRET usually uses a lanthanide donor and a delayed reading to cut background.

The test system of experiment [2] is Recombinant human c-Cbl (aa 47-435). The experiment in a line: c-Cbl Biochemical Assay (TR-FRET). Particulars: ratio from the Cbl-b and c-Cbl TR-FRET biochemical assays. How it is done: c-Cbl Biochemical Assay (TR-FRET)
Recombinant human c-Cbl (aa 47-435) was expressed in E coli, purified and biotinylated in vitro. The protein was diluted to 12 nM in freshly prepared assay buffer consisting of 50 mM HEPES, pH 7.0, 100 mM NaCl, 5 mM MgCl2, 0.01% Triton-X 100, 0.01% BSA and 1 mM DTT. Recombinant human Src (aa 254-536)-GSSGSS-Zap-70 (aa 281-297) fusion protein was expressed in E coli and purified. Protein was diluted in assay buffer to 5-20 nM and ATP was added to 1 mM. Recombinant human UBE2D2(C85K) was expressed in E coli, purified and ubiquitinated and Bodipy labelled in vitro. Protein was diluted to 200 nM in assay buffer without MgCl2 (or Cisbio PPI buffer). Streptavidin-Terbium was added to 2 nM and EDTA to 10 mM, to provide a binding assay mix. Compounds were dissolved in DMSO and diluted to prepare a ten-point half log dilution series. 100 nl of each compound concentration was dispensed in duplicate in a 384 well black assay plate using acoustic dispensing. […] The enzyme reaction was terminated and the binding reaction was initiated by adding 10p of binding assay mix to all wells and incubating the plate at RT for 60 min prior to assay read. […] The HTRF assay signal was measured at 520 nm on an Envision plate reader, with reference signal at 485 or 620 nm. […]

The term IC50 denotes the point on the concentration scale where inhibition reaches its midpoint. As to `Cn1cnnc1-c1ccccc1-c1cc(NCCC#N)nc(-c2nc3cc(CNCC(C)(C)O)cc(C(F)(F)F)c3o2)c1`, the IC50 in experiment [1] was in the range of 200 to 5000 nM. The Cbl-b/c-Cbl Selectivity in experiment [2] amounted to 6.
